{
  "source": "paper PMC12400800",
  "about": "“Significantly enhancing human antibody affinity via deep learning and computational biology-guided single-point mutations” (Briefings in Bioinformatics, 2025)",
  "data": [
    {"molecular_target": "Recombinant death receptor 5 (DR5) (Homo sapiens, UniProt O14763)", "details": "one partner purified", "units": {"Kd": "nM", "koff": "s⁻¹", "kon": "M⁻¹ s⁻¹"}, "values": [
      {"binder": "DR5-Ab1 (DR5-Ab H:L100I) (antibody, V domains shown) VH: EVQLQQSGAEVVKPGASVKLSCKASGFNIKDTFIHWVKQAPGQGLEWIGRIDPANTNTKYDPKFQGKATITTDTSSNTAYMELSSLRSEDTAVYYCVRGIYTYYFDYWGQGTLVTVSS VL: EIVMTQSPATLSVSPGERATLSCRASQSISNNLHWYQQKPGQAPRLLIKFASQSITGIPARFSGSGSGTEFTLTISSLQSEDFAVYYCQQGNSWPYTFGQGTKLEIK", "Kd": 0.681, "koff": 0.000174, "kon": 281000},
      {"binder": "DR5-Ab2 (DR5-Ab H:Y104G) (antibody, V domains shown) VH: EVQLQQSGAEVVKPGASVKLSCKASGFNIKDTFIHWVKQAPGQGLEWIGRIDPANTNTKYDPKFQGKATITTDTSSNTAYMELSSLRSEDTAVYYCVRGLYTYGFDYWGQGTLVTVSS VL: EIVMTQSPATLSVSPGERATLSCRASQSISNNLHWYQQKPGQAPRLLIKFASQSITGIPARFSGSGSGTEFTLTISSLQSEDFAVYYCQQGNSWPYTFGQGTKLEIK", "Kd": 35.1, "koff": 0.00169, "kon": 45200},
      {"binder": "DR5-Ab4 (DR5-Ab H:I29Y) (antibody, V domains shown) VH: EVQLQQSGAEVVKPGASVKLSCKASGFNYKDTFIHWVKQAPGQGLEWIGRIDPANTNTKYDPKFQGKATITTDTSSNTAYMELSSLRSEDTAVYYCVRGLYTYYFDYWGQGTLVTVSS VL: EIVMTQSPATLSVSPGERATLSCRASQSISNNLHWYQQKPGQAPRLLIKFASQSITGIPARFSGSGSGTEFTLTISSLQSEDFAVYYCQQGNSWPYTFGQGTKLEIK", "Kd": 5.43, "koff": 0.00106, "kon": 212000},
      {"binder": "DR5-Ab3 (DR5-Ab H:I29N) (antibody, V domains shown) VH: EVQLQQSGAEVVKPGASVKLSCKASGFNNKDTFIHWVKQAPGQGLEWIGRIDPANTNTKYDPKFQGKATITTDTSSNTAYMELSSLRSEDTAVYYCVRGLYTYYFDYWGQGTLVTVSS VL: EIVMTQSPATLSVSPGERATLSCRASQSISNNLHWYQQKPGQAPRLLIKFASQSITGIPARFSGSGSGTEFTLTISSLQSEDFAVYYCQQGNSWPYTFGQGTKLEIK", "Kd": 5.48, "koff": 0.000976, "kon": 186000}
    ]}
  ]
}
